Common to all, as to type: nucleic-acid assay
In assay [1] the test system is Nucleic Acid. The assay can be described thus: Binding affinity to CGU ACA GUG RNA sequence assessed as change in melting temperature by thermal denaturation assay.
Assay [2] concerns Nucleic Acid. Briefly: Binding affinity to CGU AGA GUG RNA sequence assessed as melting temperature by thermal denaturation assay.
The subject of assay [3] is Nucleic Acid. Briefly: Binding affinity to CGT ACA GTG DNA sequence assessed as change in melting temperature by thermal denaturation assay.
In assay [4] the test system is Nucleic Acid. Briefly: Binding affinity to CGT ATA GTG DNA sequence assessed as change in melting temperature by thermal denaturation assay.
The subject of assay [5] is Nucleic Acid. Briefly: Binding affinity to CGU AGA GUG RNA sequence assessed as change in melting temperature by thermal denaturation assay.
Assay [6] relates to Nucleic Acid. The assay can be described thus: Binding affinity to CGT AGA GTG DNA sequence assessed as melting temperature by thermal denaturation assay.
The test system of assay [7] is Nucleic Acid. Briefly: Binding affinity to CGU AAA GUG RNA sequence assessed as change in melting temperature by thermal denaturation assay.
Assay [8] deals with Nucleic Acid. Briefly: Binding affinity to CGT AAA GTG DNA sequence assessed as change in melting temperature by thermal denaturation assay.
Assay [9] concerns Nucleic Acid. The assay can be described thus: Binding affinity to CGU AUA GUG RNA sequence assessed as change in melting temperature by thermal denaturation assay.
Assay [10] concerns Nucleic Acid. The assay can be described thus: Binding affinity to CGT AGA GTG DNA sequence assessed as change in melting temperature by thermal denaturation assay.
In assay [11] the test system is Nucleic Acid. The assay can be described thus: Binding affinity to AAA TAT ATA GTG C DNA sequence assessed as melting temperature by thermal denaturation assay.
The subject of assay [12] is Nucleic Acid. The assay can be described thus: Binding affinity to AAA UAU AUA GUG C RNA sequence by fluorescence emission spectrum analysis.
In assay [13] the test system is Nucleic Acid. Briefly: Binding affinity to AAA UAU AUA GUG C RNA sequence assessed as melting temperature by thermal denaturation assay.
For assay [14], the system named is Nucleic Acid. Briefly: Binding affinity to AAA TAT ATA GTG DNA sequence by fluorescence emission spectrum analysis.
Assay [15] has as its system Nucleic Acid. Briefly: Binding affinity to AAA TAT ATA GTG C DNA sequence assessed as change in melting temperature by thermal denaturation assay.
The subject of assay [16] is Nucleic Acid. The assay can be described thus: Binding affinity to AAA UAU AUA GUG C RNA sequence assessed as change in melting temperature by thermal denaturation assay.

These results are taken from ChEMBL document CHEMBL1629435, “Novel insights into the use of Glowing LNA as nucleic acid detection probes--influence of labeling density and nucleobases” (Bioorg Med Chem Lett, 2010).

SMILES strings stand for the structures.

For the molecule `Cc1cn([C@@H]2O[C@@]3(COP(C)(=O)O[C@H]4C[C@H](n5cnc6c(N)ncnc65)O[C@@H]4COP(C)(=O)O[C@H]4C[C@H](n5cnc6c(=O)[nH]c(N)nc65)O[C@@H]4COP(=O)(O)O[C@H]4[C@H]5OC[C@]4(COP(C)(=O)O[C@H]4C[C@H](n6cnc7c(=O)[nH]c(N)nc76)O[C@@H]4CO)O[C@H]5n4cc(C)c(=O)[nH]c4=O)CO[C@@H]2[C@@H]3OP(=O)(O)OC[C@H]2O[C@@H](n3cnc4c(N)ncnc43)C[C@@H]2OP(C)(=O)OC[C@@]23CO[C@@H]([C@H](n4cc(C)c(=O)[nH]c4=O)O2)[C@@H]3OP(=O)(O)OC[C@H]2O[C@@H](n3cnc4c(=O)[nH]c(N)nc43)C[C@@H]2OP(C)(=O)OC[C@H]2O[C@@H](n3ccc(N)nc3=O)C[C@@H]2O)c(=O)[nH]c1=O` (some centres not stated), the shift in melting temperature (ΔTm) (as a rule, the shift of the melting midpoint relative to a reference) is less than -30.5 °C in assay [1]; less than -29.5 °C in [3]; less than -29.5 °C in assay [4]; 4 °C in assay [5]; -27.5 °C in assay [7]; less than -29.5 °C in assay [8]. Moreover, the ΔTm in assay [9] was less than -30.5 °C; in [10] it was 5 °C. Further, the Tm (commonly the temperature at which the thermal transition is half complete) came to 40.5 °C in assay [2] and 39.5 °C in assay [6].
As for `Cc1cn([C@H]2C[C@H](OP(=O)(O)OC[C@H]3O[C@@H](n4cnc5c(N)ncnc54)C[C@@H]3OP(C)(=O)OC[C@H]3O[C@@H](n4cc(C)c(=O)[nH]c4=O)C[C@@H]3OP(=O)(O)OC[C@H]3O[C@@H](n4cnc5c(=O)[nH]c(N)nc54)C[C@@H]3OP(C)(=O)OC[C@H]3O[C@@H](n4ccc(N)nc4=O)C[C@@H]3O)[C@@H](COP(C)(=O)O[C@H]3C[C@H](n4cnc5c(N)ncnc54)O[C@@H]3COP(C)(=O)O[C@H]3C[C@H](n4cnc5c(=O)[nH]c(N)nc54)O[C@@H]3COP(=O)(O)O[C@H]3C[C@H](n4cc(C)c(=O)[nH]c4=O)O[C@@H]3COP(C)(=O)O[C@H]3C[C@H](n4cnc5c(=O)[nH]c(N)nc54)O[C@@H]3CO)O2)c(=O)[nH]c1=O` (some centres not stated), the figures for the Tm in [2] and in assay [6] were 46.5 °C and 40.5 °C, respectively. The ΔTm amounted to 10 °C in [5] and 6 °C in [10].
`Cc1cn([C@H]2C[C@H](OP(=O)(O)OC[C@H]3O[C@@H](n4cnc5c(=O)[nH]c(N)nc54)C[C@@H]3OP(=O)(O)OC[C@H]3O[C@@H](n4ccc(N)nc4=O)C[C@@H]3O)[C@@H](COP(C)(=O)O[C@H]3C[C@H](n4cnc5c(N)ncnc54)O[C@@H]3COP(=O)(O)O[C@H]3C[C@H](n4cc(C)c(=O)[nH]c4=O)O[C@@H]3COP(=O)(O)O[C@H]3C[C@H](n4cnc5c(N)ncnc54)O[C@@H]3COP(C)(=O)O[C@H]3C[C@H](n4cnc5c(=O)[nH]c(N)nc54)O[C@@H]3COP(=O)(O)O[C@H]3C[C@H](n4cc(C)c(=O)[nH]c4=O)O[C@@H]3COP(=O)(O)O[C@H]3C[C@H](n4cnc5c(=O)[nH]c(N)nc54)O[C@@H]3CO)O2)c(=O)[nH]c1=O` (some centres not stated): the values for the midpoint of thermal melting (Tm) in [11] and in [13] were 41.5 °C and 44.5 °C, respectively. Also, the fold change (FC) in assay [12] and in assay [14] was 3.5 throughout. In addition, the figures for the ΔTm in assay [15] and in [16] were 4 °C and 6 °C, respectively.
With `Cc1cn([C@@H]2O[C@@]3(COP(C)(=O)O[C@H]4C[C@H](n5cnc6c(N)ncnc65)O[C@@H]4COP(=O)(O)O[C@H]4[C@H]5OC[C@]4(COP(=O)(O)O[C@H]4C[C@H](n6cnc7c(N)ncnc76)O[C@@H]4COP(C)(=O)O[C@H]4C[C@H](n6cnc7c(=O)[nH]c(N)nc76)O[C@@H]4COP(=O)(O)O[C@H]4[C@H]6OC[C@]4(COP(=O)(O)O[C@H]4C[C@H](n7cnc8c(=O)[nH]c(N)nc87)O[C@@H]4CO)O[C@H]6n4cc(C)c(=O)[nH]c4=O)O[C@H]5n4cc(C)c(=O)[nH]c4=O)CO[C@@H]2[C@@H]3OP(=O)(O)OC[C@H]2O[C@@H](n3cnc4c(=O)[nH]c(N)nc43)C[C@@H]2OP(=O)(O)OC[C@H]2O[C@@H](n3ccc(N)nc3=O)C[C@@H]2O)c(=O)[nH]c1=O` (some centres not stated), the Tm in assay [11] is 33.5 °C; in [13] it was 32.5 °C.
